Values of other authors in publication PMC5428233, “Cross-beta nanostructures based on dinaphthylalanine Gd-conjugates loaded with doxorubicin” (Scientific Reports, 2017).

Design: method as in doi:10.1002/adfm.201502458
Details: previously found value; cited from earlier work

Substance: Gd-DOTA-L6-F4
- critical aggregation concentration (CAC): 5.1·10^−5 M and 0.076 mg/mL

“And” between values parts separate entries of the source, which are not always exact repeats. Identical values can stand only once.
